In ChEMBL document CHEMBL1125523, “Novel indolodioxanes with antihypertensive effects: potent ligands for the 5-HT1A receptor” (J Med Chem, 1992):

Target: Opioid receptor (Rattus norvegicus, UniProt P33533+P34975+P33535)
Experiment: Compound was evaluated for the binding affinity towards opioid receptor from rat whole brain using [3H]etorpine (33.2 Ci/mmol,0.2nanoM)as radioligand

| SMILES | Ki [nM] |
| --- | --- |
| COC(=O)c1cc2c3c(ccc2[nH]1)OCC(CN1CCC(Nc2ccccc2)(C(N)=O)CC1)O3 (centres undefined) | 3230 |
| O=C(OCc1ccccc1)c1cc2c3c(ccc2[nH]1)OCC(CN1CCC2(CC1)C(=O)NCN2c1ccccc1)O3 (centres undefined) | 14.4 |
| COC(=O)c1cc2c3c(ccc2[nH]1)OCC(CN1CCC(n2c(O)nc4ccccc42)CC1)O3 (centres undefined) | 4.3 |
| O=C(O)c1cc2c3c(ccc2[nH]1)OCC(CN1CCC2(CC1)C(=O)NCN2c1ccccc1)O3 (centres undefined) | 131 |
